# Source: PubChem BioAssay AID1527 (The Scripps Research Institute Molecular Screening Center, 2009)
# The list shows a part of the results, in another mix than the full data. Activity calls are given as the source filed them.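 How the source made its calls: active means inhibition above the mean of all tested compounds plus 3 SD, cutoff set per screening run (cut at about 7.5% in these data); inactive means the rest.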
# Tested on: VIM-2 metallo-beta-lactamase (Pseudomonas aeruginosa)
# Assay: inhibition of VIM-2 nitrocefin hydrolysis – biochemical, epi-absorbance readout, Pseudomonas aeruginosa enzyme, primary screen (AID 1527);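 further: red hydrolysis product quenches plate fluorescence so inhibitors raise well fluorescence; 0% = enzyme with DMSO and 100% = DMSO without enzyme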
# Details: purified VIM-2, nitrocefin hydrolysis, epi-absorbance fluorescence; at 5.6 µM; active compounds read high
row,SMILES,inhibition
1,CC(=O)Nc1ccc([As](=O)(O)O)cc1,inactive: -1.69%
2,O=C(O)c1ccccc1[As](=O)(O)O,inactive: -1.79%
3,Cc1ccccc1OP(=O)(Nc1ccccn1)Oc1ccccc1C,inactive: -2.16%
4,O=c1c2cc([N+](=O)[O-])ccc2[nH]c2c([N+](=O)[O-])cc([N+](=O)[O-])cc12,inactive: -5.92%
5,CN(C)C(=O)Oc1noc2ccccc12,inactive: -1.62%
6,O=C(OC1CN2CCC1CC2)c1ccccc1 (centres undefined),inactive: -2.05%
7,CCC(=O)N1C2C3N(C(=O)CC)C1C1N(C(=O)CC)C(C(N1C(=O)CC)N3C(=O)CC)N2C(=O)CC,inactive: -3.1%
8,COC(=O)c1cc2c(s1)N=C(c1ccccc1)N(C)P2(=O)N1CCOCC1 (centres undefined),inactive: 3.76%
9,Cc1ccc(OP(=O)(Nc2ccccn2)Oc2ccc(C)cc2)cc1,inactive: -1.38%
10,CC(=O)NC(SC(=S)N(CC(C)C)CC(C)C)C(Cl)(Cl)Cl (centres undefined),inactive: -1.96%
11,c1ccc(-c2nn[nH]n2)c(-c2nn[nH]n2)c1,inactive: -3.19%
12,CCOC(=O)NC(Sc1ccccc1)C(Cl)(Cl)Cl (centres undefined),inactive: -0.41%
13,Cc1ccc(NP(=O)(Oc2cccc(C)c2)Oc2cccc(C)c2)nc1,inactive: -0.07%
14,CCNC(=S)/N=C(\N)N[N+](=O)[O-],inactive: -1.06%
15,O=C(NC1CCS(=O)(=O)C1)NP(=S)(Oc1ccccc1)Oc1ccccc1 (centres undefined),inactive: -1.85%
16,CC(=O)Nc1ccc([As](=O)(O)O)c(O)c1,inactive: -2.29%
17,CC(=O)Nc1ccc(Oc2c([N+](=O)[O-])cc([N+](=O)[O-])cc2[N+](=O)[O-])cc1,inactive: -0.53%

row,SMILES,inhibition
1,CC(=O)c1ccc(N2CC2c2ccncc2)cc1 (centres undefined),inactive: -1.85%
2,CC(C)(C)C(=O)NC(Sc1ccccc1)C(Cl)(Cl)Cl (centres undefined),inactive: -1.62%
3,O=P1(Nc2nc3ccc(Cl)cc3s2)COc2ccccc2O1 (centres undefined),inactive: -2.19%
4,CCOc1ccc(C2=NCC(CBr)S2)cc1 (centres undefined),inactive: -3.07%
5,c1nnnn1CCn1cnnn1,inactive: -4.58%
6,CC(C)C(=O)NC(Sc1ccccc1)C(Cl)(Cl)Cl (centres undefined),inactive: -1.63%
7,O=P(Nc1nccs1)(c1ccccc1)c1ccccc1,inactive: -3.31%
8,O=C(OC1CN2CCC1CC2)c1cccc(Cl)c1 (centres undefined),inactive: 0.46%
9,C(Cc1nn[nH]n1)Cc1nn[nH]n1,inactive: -2.84%
10,Nc1ccc([As](=O)(O)c2ccc([N+](=O)[O-])cc2)cc1,inactive: -0.43%
11,O=[As](O)(c1ccccc1)c1ccc(O)cc1,inactive: 0.17%
12,O=[N+]([O-])c1ccc(O)c(/C=N/Nc2ccc([N+](=O)[O-])cc2[N+](=O)[O-])c1,inactive: -2.71%
13,O=[N+]([O-])c1ncn(CCn2cnc([N+](=O)[O-])n2)n1,inactive: -4.21%
14,CC(=O)NC(SC(=S)N(C)C)C(Cl)(Cl)Cl (centres undefined),inactive: -2.67%
15,O=P(Nc1nc2ccccc2s1)(c1ccccc1)c1ccccc1,inactive: -1.9%
16,O=P(Nc1ccccn1)(c1ccc(Br)cc1)c1ccc(Br)cc1,inactive: -2.16%
17,CN(C)C1(CNC(=O)c2ccc(Cl)c(S(N)(=O)=O)c2)CCCCC1,inactive: -3.26%
